Test results from US9073954B2, “5-substituted benzimidazolium compounds” (Boehringer Ingelheim International GmbH, priority 2013, dated 2015).

The chains behind the UniProt entries cited, without tags or fusion partners.
UniProt Q61180, whole entry: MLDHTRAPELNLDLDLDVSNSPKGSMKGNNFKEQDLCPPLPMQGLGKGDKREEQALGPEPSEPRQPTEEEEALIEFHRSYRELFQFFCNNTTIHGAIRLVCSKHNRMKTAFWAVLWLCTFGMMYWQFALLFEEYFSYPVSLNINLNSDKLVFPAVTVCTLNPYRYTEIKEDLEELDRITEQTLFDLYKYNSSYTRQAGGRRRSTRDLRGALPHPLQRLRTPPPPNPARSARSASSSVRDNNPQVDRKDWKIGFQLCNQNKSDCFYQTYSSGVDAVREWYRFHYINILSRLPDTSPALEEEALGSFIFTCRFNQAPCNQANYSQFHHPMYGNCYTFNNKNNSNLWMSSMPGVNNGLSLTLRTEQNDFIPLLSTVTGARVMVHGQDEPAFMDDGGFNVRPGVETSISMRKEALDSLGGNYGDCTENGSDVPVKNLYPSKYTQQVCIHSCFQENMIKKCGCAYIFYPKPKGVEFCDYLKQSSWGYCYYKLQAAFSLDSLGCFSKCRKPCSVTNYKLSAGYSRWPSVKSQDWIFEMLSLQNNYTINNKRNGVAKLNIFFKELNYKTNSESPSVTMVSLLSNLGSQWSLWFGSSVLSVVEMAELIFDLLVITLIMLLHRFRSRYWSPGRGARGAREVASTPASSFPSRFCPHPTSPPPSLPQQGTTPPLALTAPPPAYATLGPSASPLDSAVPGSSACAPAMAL
UniProt Q9WU38, whole entry: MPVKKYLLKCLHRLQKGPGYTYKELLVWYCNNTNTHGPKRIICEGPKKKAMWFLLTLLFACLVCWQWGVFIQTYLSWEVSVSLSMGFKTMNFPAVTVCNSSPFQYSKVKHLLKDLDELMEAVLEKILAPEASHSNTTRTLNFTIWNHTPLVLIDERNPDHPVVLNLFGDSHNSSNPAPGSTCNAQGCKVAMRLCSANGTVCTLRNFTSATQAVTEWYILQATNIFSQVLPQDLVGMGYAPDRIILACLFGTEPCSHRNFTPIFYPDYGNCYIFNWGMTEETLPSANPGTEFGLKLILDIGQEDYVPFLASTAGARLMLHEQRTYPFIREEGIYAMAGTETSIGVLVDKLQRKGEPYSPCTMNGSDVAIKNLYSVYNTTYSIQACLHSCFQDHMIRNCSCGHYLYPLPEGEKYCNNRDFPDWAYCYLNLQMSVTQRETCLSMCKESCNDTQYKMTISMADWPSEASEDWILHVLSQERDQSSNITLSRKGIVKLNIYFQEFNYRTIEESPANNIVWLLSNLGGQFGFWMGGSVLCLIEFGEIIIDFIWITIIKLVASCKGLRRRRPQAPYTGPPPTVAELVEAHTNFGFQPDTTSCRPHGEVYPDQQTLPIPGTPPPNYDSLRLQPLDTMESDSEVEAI
UniProt Q9WU39, whole entry: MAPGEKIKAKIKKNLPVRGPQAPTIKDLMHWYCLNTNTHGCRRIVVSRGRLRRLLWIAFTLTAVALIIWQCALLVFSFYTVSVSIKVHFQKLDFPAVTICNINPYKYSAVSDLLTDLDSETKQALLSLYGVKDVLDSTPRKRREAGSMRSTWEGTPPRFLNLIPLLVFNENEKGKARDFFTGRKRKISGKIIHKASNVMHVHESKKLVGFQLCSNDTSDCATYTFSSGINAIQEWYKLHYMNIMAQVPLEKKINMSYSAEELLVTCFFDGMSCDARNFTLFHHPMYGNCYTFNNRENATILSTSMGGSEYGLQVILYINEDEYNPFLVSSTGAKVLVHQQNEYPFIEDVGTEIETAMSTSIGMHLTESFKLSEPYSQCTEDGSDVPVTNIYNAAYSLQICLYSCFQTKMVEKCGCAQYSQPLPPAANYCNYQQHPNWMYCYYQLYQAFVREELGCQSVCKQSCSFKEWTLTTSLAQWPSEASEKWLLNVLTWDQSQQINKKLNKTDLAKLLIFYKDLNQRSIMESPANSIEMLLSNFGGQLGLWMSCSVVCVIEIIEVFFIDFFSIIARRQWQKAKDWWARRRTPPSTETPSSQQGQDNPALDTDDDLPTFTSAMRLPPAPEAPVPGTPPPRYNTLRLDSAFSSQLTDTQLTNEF

Biological target: ENaC (Epithelial Sodium Channel) (Mus musculus, UniProt Q61180+Q9WU38+Q9WU39)
Assay: Ussing chamber: short circuit current in M-1 cells
Type: cell-based
Conditions: mouse kidney M-1 cells, amiloride sensitive I_SC, apical application, 37° C.

SMILES | IC50 (tested form: TFA salt) [nM] | IC50 (tested form: TFA) [nM]
CCn1c(CNC(=O)c2nc(Cl)c(N)nc2N)[n+](CC)c2ccc(OCCCP(=O)(O)OCC[N+](C)(C)C)cc21 | 3 | 
CCn1c(CNC(=O)c2nc(Cl)c(N)nc2N)[n+](C[C@H](C)O)c2cc(O[C@H]3CO[C@H]4[C@@H]3OC[C@@H]4O)ccc21 |  | 1
CCn1c(CNC(=O)c2nc(Cl)c(N)nc2N)[n+](CC)c2ccc(OCCOP(=O)(O)CCC[N+](C)(C)C)cc21 | 3 | 
